The entries are a selection whose mix differs from that of the whole data set. Some salts or complexes appear as unconnected parts, following the source record. Active and inactive are the calls of the source.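 Rule for the calls: active = response, share of CD8 T cells binding vesicles, and their 90th percentile fluorescence all below set limits (cut at about 80% in these data, passing the limit was not always enough); inactive = the rest, inconclusive results apart.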

This assay in a line: modulators of CD8 T cell-vesicle binding, primary screen, mouse 2C CD8+ T cells, flow cytometry (AID 2052).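 Note: values below 100% mean blocked vesicle binding to the CD8+ T cells.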 As to conditions: 2C CD8+ T cell-vesicle binding, at 7 µM, hits give low values. The gist of the method: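 Material: murine 2C transgenic CD8+ T lymphocytes / Also added: QL9-peptide-loaded Drosophila micro-vesicles bearing Ld, ICAM-1 and B7-1 / Schedule: binding step 1.5 h, 37 °C, antibody labelling 20 min, ice / Signal: flow cytometry, PE anti-B7-1 (FL2) versus Alexa647 anti-CD8 (FL8), PFA-fixed / Evaluation: percent CD8+ FL2 mean versus row control / Benchmarks: naked versus QL9-loaded vesicles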
Background: A flow cytometer gives signals particle by particle.
Turning to `CC(=O)Nc1ccc([As](=O)(O)O)c(O)c1`, the response (vesicle binding) is inactive: 233%.
Regarding `COc1ccc2c(c1O)-c1c(O)c(OC)cc3c1[C@H](C2)[N+](C)(C)CC3.O=[N+]([O-])c1cc([N+](=O)[O-])c([O-])c([N+](=O)[O-])c1[O-]`, the response (vesicle binding) is inactive: 338%.
The value for `O=C(OC1CN2CCC1CC2)c1ccc([N+](=O)[O-])cc1` (stereo not drawn) was inactive: 603%.
For the compound `CC(=O)c1ccc(N2CC2c2ccncc2)cc1` (stereo not drawn), the response (vesicle binding) is inactive: 525%.
In the case of `C[C@H]1OP(=O)(Oc2ccccc2)C[C@@H]2O[C@@H]21` (stereo partly drawn), the response (vesicle binding) was inactive: 492%.
Regarding `C[C@@H]1C=CCP(=O)(Oc2ccccc2)O1` (stereo partly drawn), the response (vesicle binding) was inactive: 312%.
The result for `O=C(OCCN1CCN(CCOCc2ccccc2)CC1)C(O)(c1ccccc1)c1ccccc1` reads inactive: 151%.
For the compound `Cc1ccccc1CN(C)C(=O)COC(=O)C(O)(c1ccccc1)c1ccccc1`, the response (vesicle binding) is inactive: 607%.
For the compound `CP(=O)(Nc1ccccc1F)Oc1ccccc1` (stereo not drawn), the response (vesicle binding) was inactive: 273%.
In the case of `CC(C)c1ccc(OP(C)(=O)Nc2ccc(SC(F)(F)F)cc2)cc1` (stereo not drawn), the response (vesicle binding) is inactive: 243%.
Regarding `CC(C)(C)C(=O)NC(Sc1ccccc1)C(Cl)(Cl)Cl` (stereo not drawn), the response (vesicle binding) is inactive: 538%.
For the compound `CCOc1ccc(C2=NCC(CBr)S2)cc1` (stereo not drawn), the response (vesicle binding) was inactive: 304%.
With `O=P1(Nc2nc3ccc(Cl)cc3s2)COc2ccccc2O1` (stereo not drawn), the response (vesicle binding) was inactive: 568%.
The value for `CP(=O)(Nc1ccccc1)Oc1ccc(F)cc1` (stereo not drawn) was inactive: 618%.
For the compound `CCCCCOc1ccc(NP(C)(=O)Oc2ccc(Cl)cc2Cl)cc1` (stereo not drawn), the response (vesicle binding) was inactive: 121%.
Consider `O=[N+]([O-])c1cc([N+](=O)[O-])c(OC2CCCCC2O)c([N+](=O)[O-])c1` (stereo not drawn), for which the response (vesicle binding) was inactive: 246%.
As for `CN(C)C(=O)Oc1noc2ccccc12`, the response (vesicle binding) was inactive: 1200%.
For the compound `CC(NC(=O)COC(=O)C(O)(c1ccccc1)c1ccccc1)c1ccccc1` (stereo not drawn), the response (vesicle binding) is inactive: 192%.
For the compound `Cc1ccccc1OP(=O)(Nc1ccccn1)Oc1ccccc1C`, the response (vesicle binding) was inactive: 950%.
Turning to `CC(=O)NC(SC(=S)N(CC(C)C)CC(C)C)C(Cl)(Cl)Cl` (stereo not drawn), the response (vesicle binding) was inactive: 298%.
As to `Cc1ccc(OP(=O)(Nc2ccccn2)Oc2ccc(C)cc2)cc1`, the response (vesicle binding) is inactive: 242%.
Turning to `COC(=O)c1cc2c(s1)N=C(c1ccccc1)N(C)P2(=O)N1CCOCC1` (stereo not drawn), the response (vesicle binding) was inactive: 210%.
Regarding `CCC(=O)N1C2C3N(C(=O)CC)C1C1N(C(=O)CC)C(C(N1C(=O)CC)N3C(=O)CC)N2C(=O)CC`, the response (vesicle binding) was inactive: 196%.
`CCN(CC)CCCOC(=O)C(O)(c1ccccc1)C1CCCCC1` (stereo not drawn): the response (vesicle binding) was inactive: 211%.
`O=C(OC1CN2CCC1CC2)c1ccccc1` (stereo not drawn): the response (vesicle binding) was inactive: 200%.
Turning to `CCOC(=O)c1ccc(NP(C)(=O)Oc2ccc(F)cc2)cc1` (stereo not drawn), the response (vesicle binding) is inactive: 327%.
For the compound `COc1ccc(OP(C)(=O)Nc2ccc(SC(F)(F)F)cc2)cc1` (stereo not drawn), the response (vesicle binding) was inactive: 305%.
`O=C(NC1CCS(=O)(=O)C1)NP(=S)(Oc1ccccc1)Oc1ccccc1` (stereo not drawn): the response (vesicle binding) was inactive: 133%.
In the case of `CCNC(=S)/N=C(\N)N[N+](=O)[O-]`, the response (vesicle binding) was inactive: 592%.
Consider `Cc1ccc(NP(=O)(Oc2cccc(C)c2)Oc2cccc(C)c2)nc1`, for which the response (vesicle binding) was inactive: 618%.
The result for `CCOC(=O)NC(Sc1ccccc1)C(Cl)(Cl)Cl` (stereo not drawn) reads inactive: 353%; that for `c1ccc(-c2nn[nH]n2)c(-c2nn[nH]n2)c1`, inactive: 289%.
Take `C(Cc1nn[nH]n1)Cc1nn[nH]n1`: the response (vesicle binding) was inactive: 511%.
Consider `Nc1ccc([As](=O)(O)c2ccc([N+](=O)[O-])cc2)cc1`, for which the response (vesicle binding) is inactive: 53.9%.
The value for `O=C(OC1CN2CCC1CC2)c1cccc(Cl)c1` (stereo not drawn) was inactive: 221%; that for `CC(=O)NC(SC(=S)N(C)C)C(Cl)(Cl)Cl` (stereo not drawn) was inactive: 343%; that for `O=[N+]([O-])c1ccc(OP2(=O)COCCO2)cc1` (stereo not drawn) was inactive: 214%.
For `O=[N+]([O-])c1ncn(CCn2cnc([N+](=O)[O-])n2)n1`, the response (vesicle binding) was inactive: 373%.
With `O=[N+]([O-])c1ccc(O)c(/C=N/Nc2ccc([N+](=O)[O-])cc2[N+](=O)[O-])c1`, the response (vesicle binding) is inactive: 180%.
`O=[N+]([O-])c1cc([N+](=O)[O-])c(NCC2CCS(=O)(=O)C2)c([N+](=O)[O-])c1` (stereo not drawn): the response (vesicle binding) is inactive: 465%.
On to `O=[As](O)(c1ccccc1)c1ccc(O)cc1`, for which the response (vesicle binding) is inactive: 838%.
On to `C[C@H]1OP(=O)(Oc2ccccc2)[C@H](O)[C@H](O)[C@H]1N=[N+]=[N-]` (stereo partly drawn), for which the response (vesicle binding) was inactive: 583%.
Turning to `O=P(Nc1nc2ccccc2s1)(c1ccccc1)c1ccccc1`, the response (vesicle binding) was inactive: 49.3%.
In the case of `CN(C)CCOC(=O)C(O)(c1ccccc1)C1CCCCC1` (stereo not drawn), the response (vesicle binding) was inactive: 950%.
In the case of `COc1ccc(NP(C)(=O)Oc2ccccc2OC)cc1` (stereo not drawn), the response (vesicle binding) was inactive: 235%.
Turning to `COc1ccc(OP(C)(=O)Nc2cccc(Br)c2)cc1` (stereo not drawn), the response (vesicle binding) was inactive: 367%.
For the compound `CN(C)C1(CNC(=O)c2ccc(Cl)c(S(N)(=O)=O)c2)CCCCC1`, the response (vesicle binding) is inactive: 353%.
For `O=P(Nc1ccccn1)(c1ccc(Br)cc1)c1ccc(Br)cc1`, the response (vesicle binding) is inactive: 364%.
Consider `Cc1ccccc1NP(C)(=O)Nc1ccccc1C`, for which the response (vesicle binding) is inactive: 405%.
In the case of `CP(=O)(Nc1ccc2c(c1)OCCO2)Oc1ccccc1` (stereo not drawn), the response (vesicle binding) was inactive: 206%.
For `CCOP(C)(=S)SCC(=O)NC(C)(CC)C(=O)O` (stereo not drawn), the response (vesicle binding) is inactive: 177%.
`c1nnnn1CCn1cnnn1`: the response (vesicle binding) was inactive: 468%.
For the compound `CP(=O)(Nc1ccc(SC(F)(F)F)cc1)Oc1ccc(F)cc1` (stereo not drawn), the response (vesicle binding) was inactive: 762%.
Regarding `O=P(Nc1nccs1)(c1ccccc1)c1ccccc1`, the response (vesicle binding) was inactive: 218%.
Regarding `CC(C)C(=O)NC(Sc1ccccc1)C(Cl)(Cl)Cl` (stereo not drawn), the response (vesicle binding) was inactive: 128%.
In the case of `CC1(CBr)Cn2c(nc3ccccc3c2=O)S1` (stereo not drawn), the response (vesicle binding) was inactive: 233%.
Turning to `Cc1nc2ccc3ccccc3c2s1.O=[N+]([O-])c1cc([N+](=O)[O-])c(O)c([N+](=O)[O-])c1`, the response (vesicle binding) is inactive: 372%.
For `O=[As](O)(c1ccccc1Br)c1ccccc1Br`, the response (vesicle binding) was inactive: 88.4%.
Take `CN(C(=O)Cc1ccc(Cl)c(Cl)c1)[C@@H]1CCCC[C@H]1N1CCCC1`: the response (vesicle binding) is inactive: 535%.
Regarding `CC(C)/C=N\N=C(\N)N[N+](=O)[O-]`, the response (vesicle binding) is inactive: 329%.
For the compound `COc1ccccc1CNC(=O)COC(=O)C(O)(c1ccccc1)c1ccccc1`, the response (vesicle binding) was inactive: 755%.
Consider `O=[N+]([O-])c1cc([N+](=O)[O-])c(-c2cnn(-c3ccccc3)c2)c([N+](=O)[O-])c1`, for which the response (vesicle binding) is inactive: 840%.
As for `CC(C)(C)C(=O)NC(Sc1ncccn1)C(Cl)(Cl)Cl` (stereo not drawn), the response (vesicle binding) was inactive: 118%.
Consider `Clc1n[nH]nc1-c1nn[nH][15n]1`, for which the response (vesicle binding) was inactive: 345%.
For `CCOP(=O)(Nc1ccc(C)cn1)OCC`, the response (vesicle binding) is inactive: 290%.
The value for `CN(CCCl)Cc1cc(Cl)c(NC2=NCCN2)c(Cl)c1` was inactive: 0%; that for `O=[N+]([O-])c1cc([N+](=O)[O-])c(-n2nnc3ccccc32)c([N+](=O)[O-])c1` was inactive: 249%; that for `CCOP(=O)(NC(=NC(C)c1ccccc1)NC(C)c1ccccc1)OCC` (stereo not drawn) was inactive: 167%.
`CCC1=CC2Cc3nc4ccc(Cl)cc4c(N)c3C(C1)C2` (stereo not drawn): the response (vesicle binding) was inactive: 723%.
Regarding `O=P1(Nc2ccccn2)COc2ccccc2OC1`, the response (vesicle binding) is inactive: 326%.
Take `Cc1ccc(OCC(=O)OC2CN3CCC2CC3)cc1` (stereo not drawn): the response (vesicle binding) was inactive: 267%.
The value for `NS(=O)(=O)c1cccc(NC(=O)COC(=O)C(O)(c2ccccc2)c2ccccc2)c1` was inactive: 357%; that for `O=P1(Nc2ccc(Br)cn2)COc2ccccc2OC1` was inactive: 256%.
Take `CCCOc1ccc(NP(C)(=O)Oc2ccc(Cl)cc2)cc1` (stereo not drawn): the response (vesicle binding) is inactive: 265%.
The value for `Nc1cccc([As](=O)(O)c2ccccc2)c1` was inactive: 288%; that for `CP(=O)(Nc1ccc(SC(F)(F)F)cc1)Oc1ccccc1` (stereo not drawn) was inactive: 194%; that for `CN1CCCCC1COC(=O)C1(O)c2ccccc2CCc2ccccc21` (stereo not drawn) was inactive: 367%.
The result for `COc1ccccc1OP(C)(=O)Nc1c(C)cccc1C` (stereo not drawn) reads inactive: 246%; that for `O=P1(Nc2ncccn2)COc2ccccc2OC1`, inactive: 466%.
The result for `O=C(/C=C/c1ccccc1)OC1CN2CCC1CC2` (stereo not drawn) reads inactive: 318%; that for `CCOC(=O)C(CC)C1=NC(C)(C)Cc2ccccc21.O=[N+]([O-])c1cc([N+](=O)[O-])c(O)c([N+](=O)[O-])c1` (stereo not drawn), inactive: 178%; that for `CC1=C2N=C(C=C3N=C(C(C)=C4[N-][C@@](C)([C@@H]5N=C1[C@](C)(CCC(=O)NC[C@@H](C)OP(=O)([O-])O[C@H]1[C@@H](O)[C@@H](n6cnc7cc(C)c(C)cc76)O[C@@H]1CO)[C@H]5CC(N)=O)[C@@](C)(CC(N)=O)[C@@H]4CCC(N)=O)[C@@](C)(CC(N)=O)[C@@H]3CCC(N)=O)C(C)(C)[C@@H]2CCC(N)=O.[C-]#N.[Co+3]`, inactive: 741%.
For the compound `CN(C)C1(CNC(=O)c2ccc(S(C)(=O)=O)cc2)CCCCC1`, the response (vesicle binding) is inactive: 236%.
The result for `O=[N+]([O-])c1cc([N+](=O)[O-])c(Nc2nnnn2CCO)c([N+](=O)[O-])c1` reads inactive: 118%; that for `COc1cc(C2NCCC3(OCCO3)C2(C)C)cc(OC)c1OC.O=[N+]([O-])c1cc([N+](=O)[O-])c(O)c([N+](=O)[O-])c1` (stereo not drawn), inactive: 219%; that for `Cc1ccc(C(=O)OC2CN3CCC2CC3)cc1` (stereo not drawn), inactive: 204%.
The result for `CC1CCC(C(C)C)C(OP(=O)(Nc2ccccn2)c2ccccc2)C1` (stereo not drawn) reads inactive: 1070%.
The result for `Cc1nn(-c2ccccc2)c2c1P(=O)(N1CCOCC1)N(C)C(c1ccccc1)=N2` (stereo not drawn) reads inactive: 444%; that for `CC1=NCCc2c1[nH]c1ccccc21.O=[N+]([O-])c1cc([N+](=O)[O-])c(O)c([N+](=O)[O-])c1`, inactive: 219%.
Consider `CN(C(=O)Cc1ccc(Cl)c(Cl)c1)[C@H]1CC[C@@]2(CCCO2)C[C@@H]1N1CCCC1`, for which the response (vesicle binding) is inactive: 180%.
Consider `O=[N+]([O-])c1ccc2c(c1)nnn2O`, for which the response (vesicle binding) was inactive: 470%.
Take `CN(C)C(=O)c1cc([N+](=O)[O-])cc2c1-c1c(cc([N+](=O)[O-])cc1[N+](=O)[O-])C2=O`: the response (vesicle binding) was inactive: 371%.
With `CCOP1(=S)c2c(C)nn(CCC#N)c2N=C(c2ccc(F)cc2)N1C` (stereo not drawn), the response (vesicle binding) is inactive: 211%.

These data come from PubChem BioAssay AID2052 (NMMLSC, 2009).
